From PubChem BioAssay AID1259375 (The Scripps Research Institute Molecular Screening Center, 2018)
The source made the active and inactive calls. No rule for the calls is given here.

Sequences of proteins named here, by UniProt entry; tags and fusion partners are left off.
UniProt O75030, whole entry: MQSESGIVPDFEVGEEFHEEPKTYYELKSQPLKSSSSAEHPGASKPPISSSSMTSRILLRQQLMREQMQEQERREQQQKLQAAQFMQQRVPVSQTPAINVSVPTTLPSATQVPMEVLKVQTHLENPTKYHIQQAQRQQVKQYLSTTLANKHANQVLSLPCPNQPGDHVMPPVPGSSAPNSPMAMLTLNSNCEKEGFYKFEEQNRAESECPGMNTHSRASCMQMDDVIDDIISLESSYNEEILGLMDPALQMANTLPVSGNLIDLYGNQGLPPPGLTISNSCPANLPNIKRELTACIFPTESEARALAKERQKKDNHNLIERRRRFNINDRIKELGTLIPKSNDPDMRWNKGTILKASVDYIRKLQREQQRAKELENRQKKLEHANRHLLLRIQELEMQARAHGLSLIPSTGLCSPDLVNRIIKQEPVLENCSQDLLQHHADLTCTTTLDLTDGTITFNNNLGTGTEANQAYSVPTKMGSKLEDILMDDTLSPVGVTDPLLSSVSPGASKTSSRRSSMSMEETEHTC

Molecular target: Microphthalmia-associated transcription factor (Homo sapiens) (UniProt O75030)
Experiment: MITF inhibitors by FRET titration, dose response, biochemical, high throughput (AID 1259375);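 also: FRET between CFP-tagged and YFP-tagged MITF protein partners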
Conditions: FRET biochemical assay, MITF inhibition

For `O=[N+]([O-])c1cc2[nH]c3cc([N+](=O)[O-])c([N+](=O)[O-])cc3c2cc1[N+](=O)[O-]`, the IC50 was inactive: > 6.48 µM.
